Test results from BindingDB's records for patent US9212147 (Takeda Pharmaceutical, 2015).
pIC50: −log10 of the molar value.

By UniProt entry, the sequences of proteins in these tests, tags left out. Where a name states a change or a piece, a line headed by the entry shows the natural chain unless it says otherwise.
UniProt P14920: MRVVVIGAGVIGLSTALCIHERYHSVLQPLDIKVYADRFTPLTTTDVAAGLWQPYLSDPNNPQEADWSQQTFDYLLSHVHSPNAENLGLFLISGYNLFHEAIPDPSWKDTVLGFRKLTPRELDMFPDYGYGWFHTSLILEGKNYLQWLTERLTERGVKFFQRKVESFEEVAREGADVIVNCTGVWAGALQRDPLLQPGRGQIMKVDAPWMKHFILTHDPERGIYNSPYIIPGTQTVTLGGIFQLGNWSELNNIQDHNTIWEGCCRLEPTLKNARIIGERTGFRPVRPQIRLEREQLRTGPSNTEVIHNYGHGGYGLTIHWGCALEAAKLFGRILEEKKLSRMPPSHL

What was measured:
[1] = biological target: T1, D-amino-acid oxidase (Homo sapiens, UniProt P14920); test: Inhibition Assay; settings: pH 7.5; 25 °C
Description: At the time of measurement, the cells were centrifuged at 1000 rpm for one min and the Cellbanker solution was removed. […] A 4% DMSO buffer solution (50 mM sodium phosphate [pH 7.5], 0.02% CHAPS) of the test compound (4 μL) was added to a 384-well black, low volume plate, the cell suspension (4 μL) was added, and the mixture was incubated at room temperature for 15 min.

[2] = biological target: T1, D-amino-acid oxidase; test: Inhibition Assay; settings: pH 7.5; 25 °C; remark: listed apart in the source
Description: The DAAO inhibitory activity was measured by assaying the amount of hydrogen peroxide (H2O2) produced by reacting DAAO protein with flavin adenine dinucleotide (FAD) and D-alanine. The amount of H2O2 was determined by measuring the fluorescence generated on conversion of Amplex red (manufactured by Invitrogen Co.) into resorufin by the reaction of H2O2 with horseradish peroxidase (HRP).

SMILES | pIC50 [1] | pIC50 [2]
O=c1[nH]nc(CCc2cccc(CO)c2)cc1O [US9212147, 16] | 8.06 | 8.68
O=c1[nH]nc(CCc2ccc(CO)cc2)cc1O [US9212147, 14] | 8.00 | 8.54
COc1cc(CO)cc(CCc2cc(O)c(=O)[nH]n2)c1 [US9212147, 23] | 7.60 | 7.89
